From patent publication US7829568B2, “Substituted 5,6,7,8-tetrahydroimidazo[1,2-a]pyridin-2-ylamine compounds and their use for producing drugs” (Gruenenthal GmbH, priority 2005, dated 2010) come the findings set out here.

Protein sequences, listed by entry. Tags and fused reporters are not part of them.
UniProt O35433, whole entry: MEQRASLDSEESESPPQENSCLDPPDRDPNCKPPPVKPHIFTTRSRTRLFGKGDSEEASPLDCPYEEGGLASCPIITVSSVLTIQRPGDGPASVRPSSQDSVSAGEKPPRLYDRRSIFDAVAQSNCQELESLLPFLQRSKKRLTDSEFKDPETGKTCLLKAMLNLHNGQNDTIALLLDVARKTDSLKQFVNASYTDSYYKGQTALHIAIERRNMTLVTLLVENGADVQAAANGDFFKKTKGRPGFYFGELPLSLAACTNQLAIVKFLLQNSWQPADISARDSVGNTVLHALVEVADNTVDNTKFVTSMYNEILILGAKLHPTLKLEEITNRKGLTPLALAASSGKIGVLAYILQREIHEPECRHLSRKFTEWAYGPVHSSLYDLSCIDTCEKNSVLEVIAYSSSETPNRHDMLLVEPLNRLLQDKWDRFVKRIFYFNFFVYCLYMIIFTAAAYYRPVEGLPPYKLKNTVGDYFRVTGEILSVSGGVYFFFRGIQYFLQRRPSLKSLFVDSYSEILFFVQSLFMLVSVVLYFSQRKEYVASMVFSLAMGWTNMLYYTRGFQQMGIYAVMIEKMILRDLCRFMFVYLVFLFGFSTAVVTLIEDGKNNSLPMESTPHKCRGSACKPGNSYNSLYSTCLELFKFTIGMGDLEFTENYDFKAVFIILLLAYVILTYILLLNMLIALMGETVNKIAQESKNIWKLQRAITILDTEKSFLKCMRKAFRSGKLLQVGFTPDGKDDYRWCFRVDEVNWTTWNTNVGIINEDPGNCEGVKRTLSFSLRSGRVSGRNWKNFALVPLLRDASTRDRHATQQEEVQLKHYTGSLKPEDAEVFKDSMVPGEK

In the test the target is vanilloid receptor 1 (VR1/TRPV1) of rats (Rattus norvegicus, UniProt O35433). As to the kind of experiment: Functional analysis on the vanilloid receptor 1 (FLIPR Ca2+ influx assay in rat dorsal root ganglia cells). To be noted: for inhibition at 10 µM: read-out: VR1 (rat) (% inhibition in comparison with 10 μM CP); for activation at 10 µM: read-out: VR1 (rat) (% stimulation in comparison with 10 μM CP); for VR1 (rat) (% inhibition in comparison with 10 μM CP): then 100 nM capsaicin after 5 min, relative to maximum inhibition with 10 μM capsaicin.

In general, inhibition refers to the change of the read-out against control, counted positive when it falls. As to `CCCCN(C(=O)c1cccc(Cl)c1)c1nc2n(c1C(=O)NCc1ccccc1C(F)(F)F)CCCC2` [Example 51, 2-[butyl-(3-chloro-benzoyl)-amino]-5,6,7,8-tetrahydro-imidazo[1,2-a]pyridine-3-carboxylic acid 2-trifluoromethyl-benzylamide], the inhibition at 10 µM is 96% and the activation at 10 µM is 47%.
With `CCCCN(C(=O)c1cccc(Cl)c1)c1nc2n(c1C(=O)NC1CCc3ccccc31)CCCC2` (stereo not shown) [Example 52, 2-[butyl-(3-chloro-benzoyl)-amino]-5,6,7,8-tetrahydro-imidazo[1,2-a]pyridine-3-carboxylic acid indan-1-ylamide], the inhibition at 10 µM is 101% and the activation at 10 µM came to 53%.
For the molecule `CCCCN(C(=O)c1ccc(F)c(F)c1)c1nc2n(c1C(=O)N1CCN(C(c3ccccc3)c3ccccc3)CC1)CCCC2` [Example 56, N-[3-(4-benzhydryl-piperazine-1-carbonyl)-5,6,7,8-tetrahydro-imidazo[1,2-a]pyridin-2-yl]-N-butyl-3,4-difluoro-benzamide], the inhibition at 10 µM amounted to 53%.
For `CC(C)CC(NC(=O)c1c(N(C)C(=O)c2cccc3ccccc23)nc2n1CCCC2)C(=O)OCc1ccccc1` (stereo not shown) [Example 57, 4-methyl-2-({2-[methyl-(naphthalene-1-carbonyl)-amino]-5,6,7,8-tetrahydro-imidazo[1,2-a]pyridine-3-carbonyl}-amino)-pentanoic acid benzyl ester], the inhibition at 10 µM was determined as 103% and the activation at 10 µM was found to be 40%.
In the case of `CCCCN(C(=O)c1cccc(Cl)c1)c1nc2n(c1C(=O)NCc1ccc(OC)cc1OC)CCCC2` [Example 65, 2-[butyl-(3-chloro-benzoyl)-amino]-5,6,7,8-tetrahydro-imidazo[1,2-a]pyridine-3-carboxylic acid 2,4-dimethoxy-benzylamide], the inhibition at 10 µM turned out to be 30%.
For `CN(C(=O)c1cccc(Cl)c1)c1nc2n(c1C(=O)NC1CCCCC1OCc1ccccc1)CCCC2` (stereo not shown) [Example 67, 2-[(3-chloro-benzoyl)-methyl-amino]-5,6,7,8-tetrahydro-imidazo[1,2-a]pyridine-3-carboxylic acid (2-benzyloxy-cyclohexyl)-amide], the inhibition at 10 µM stood at 52%.
In the case of `CCCCN(C(=O)c1cccc(Cl)c1)c1nc2n(c1C(=O)NCCc1c[nH]c3c(C)cccc13)CCCC2` [Example 69, 2-[butyl-(3-chloro-benzoyl)-amino]-5,6,7,8-tetrahydro-imidazo[1,2-a]pyridine-3-carboxylic acid [2-(7-methyl-1H-indol-3-yl)-ethyl]-amide], the inhibition at 10 µM was found to be 43%.
With `COc1cccc(CNC(=O)c2c(N(C)C(=O)c3cccc4ccccc34)nc3n2CCCC3)c1` [Example 73, 2-[methyl-(naphthalene-1-carbonyl)-amino]-5,6,7,8-tetrahydro-imidazo[1,2-a]pyridine-3-carboxylic acid 3-methoxy-benzylamide], the inhibition at 10 µM was determined as 40%.
Regarding `CCCCN(C(=O)c1ccc(F)c(F)c1)c1nc2n(c1C(=O)NCc1ccc(F)cc1F)CCCC2` [Example 74, 2-[butyl-(3,4-difluoro-benzoyl)-amino]-5,6,7,8-tetrahydro-imidazo[1,2-a]pyridine-3-carboxylic acid 2,4-difluoro-benzylamide], the inhibition at 10 µM was 94% and the activation at 10 µM turned out to be 32%.
`CCCCN(C(=O)c1cccc(Cl)c1)c1nc2n(c1C(=O)NCC1COc3ccccc3O1)CCCC2` (stereo not shown) [Example 77, 2-[butyl-(3-chloro-benzoyl)-amino]-5,6,7,8-tetrahydro-imidazo[1,2-a]pyridine-3-carboxylic acid (2,3-dihydro-benzo[1,4]dioxin-2-ylmethyl)-amide]: the inhibition at 10 µM amounted to 63%.
Still for that read-out and setting: the same measure for `CCCCN(C(=O)c1cccc(Cl)c1)c1nc2n(c1C(=O)N1CCN(c3cccc(C(F)(F)F)c3)CC1)CCCC2` [Example 79, N-butyl-3-chloro-N-{3-[4-(3-trifluoromethyl-phenyl)-piperazine-1-carbonyl]-5,6,7,8-tetrahydro-imidazo[1,2-a]pyridin-2-yl}-benzamide]: 62%; for `CCCCN(C(=O)c1ccc(F)c(F)c1)c1nc2n(c1C(=O)NC(COC)Cc1ccccc1)CCCC2` (stereo not shown) [Example 82, 2-[butyl-(3,4-difluoro-benzoyl)-amino]-5,6,7,8-tetrahydro-imidazo[1,2-a]pyridine-3-carboxylic acid (1-methoxymethyl-2-phenyl-ethyl)-amide]: 77%.
On to `CCCCN(C(=O)c1cccc(Cl)c1)c1nc2n(c1C(=O)NC(COC)Cc1ccccc1)CCCC2` (stereo not shown) [Example 86, 2-[butyl-(3-chloro-benzoyl)-amino]-5,6,7,8-tetrahydro-imidazo[1,2-a]pyridine-3-carboxylic acid (1-methoxymethyl-2-phenyl-ethyl)-amide], for which the inhibition at 10 µM was 114% and the activation at 10 µM was 34%.
`CCCCN(C(=O)c1ccc(F)c(F)c1)c1nc2n(c1C(=O)NCc1ccccc1OC(F)(F)F)CCCC2` [Example 88, 2-[butyl-(3,4-difluoro-benzoyl)-amino]-5,6,7,8-tetrahydro-imidazo[1,2-a]pyridine-3-carboxylic acid 2-trifluoromethoxy-benzylamide]: the inhibition at 10 µM stood at 132% and the activation at 10 µM was found to be 44%.
With `CCCCN(C(=O)c1cccc(Cl)c1)c1nc2n(c1C(=O)N[C@H](C(=O)OCc1ccccc1)C(C)C)CCCC2` [Example 91], the inhibition at 10 µM was found to be 121%.
Consider `CCCCN(C(=O)c1ccc(F)c(F)c1)c1nc2n(c1C(=O)NC1CCCCC1C)CCCC2` (stereo not shown) [Example 93, 2-[butyl-(3,4-difluoro-benzoyl)-amino]-5,6,7,8-tetrahydro-imidazo[1,2-a]pyridine-3-carboxylic acid (2-methyl-cyclohexyl)-amide], for which the inhibition at 10 µM amounted to 171% and the activation at 10 µM is 51%.
Regarding `CCCCN(C(=O)c1cccc(Cl)c1)c1nc2n(c1C(=O)NCCSCc1c(Cl)cccc1Cl)CCCC2` [Example 95, 2-[butyl-(3-chloro-benzoyl)-amino]-5,6,7,8-tetrahydro-imidazo[1,2-a]pyridine-3-carboxylic acid [2-(2,6-dichlor-benzylsulphanyl)-ethyl]-amide], the “VR1 (rat) (% inhibition in comparison with 10 μM CP)” value (compound 10 μM, rat DRG cells) is 52%.
In the case of `CCCCN(C(=O)c1ccc(F)c(F)c1)c1nc2n(c1C(=O)NCc1c(C)cccc1Cl)CCCC2` [Example 102, 2-[butyl-(3,4-difluoro-benzoyl)-amino]-5,6,7,8-tetrahydro-imidazo[1,2-a]pyridine-3-carboxylic acid 2-chloro-6-methyl-benzylamide], the inhibition at 10 µM came out at 97% and the activation at 10 µM came to 66%.
In the case of `CN(C(=O)c1cccc(Cl)c1)c1nc2n(c1C(=O)NC(C(=O)OC(C)(C)C)C(C)(C)C)CCCC2` (stereo not shown) [Example 104, 2-({2-[(3-chloro-benzoyl)-methyl-amino]-5,6,7,8-tetrahydro-imidazo[1,2-a]pyridine-3-carbonyl}-amino)-3,3-dimethyl-butyric acid tert-butyl ester], the inhibition at 10 µM came out at 45%.
With `CC(NC(=O)c1c(N(C)C(=O)c2cccc3ccccc23)nc2n1CCCC2)C1CCCCC1` (stereo not shown) [Example 105, 2-[methyl-(naphthalene-1-carbonyl)-amino]-5,6,7,8-tetrahydro-imidazo[1,2-a]pyridine-3-carboxylic acid (1-cyclohexyl-ethyl)-amide], the inhibition at 10 µM came out at 32%.
On to `CCCCN(C(=O)c1cccc(Cl)c1)c1nc2n(c1C(=O)N1CCC(N3CCCCC3)CC1)CCCC2` [Example 109, N-[3-([1,4′]bipiperidinyl-1′-carbonyl)-5,6,7,8-tetrahydro-imidazo[1,2-a]pyridin-2-yl]-N-butyl-3-chloro-benzamide], for which the inhibition at 10 µM was 90% and the activation at 10 µM was found to be 68%.
Turning to `CCCCN(C(=O)c1cccc(Cl)c1)c1nc2n(c1C(=O)NCc1cccc(C)c1)CCCC2` [Example 113, 2-[butyl-(3-chloro-benzoyl)-amino]-5,6,7,8-tetrahydro-imidazo[1,2-a]pyridine-3-carboxylic acid 3-methyl-benzylamide], the inhibition at 10 µM worked out at 89% and the activation at 10 µM was found to be 39%.
As to `CCCCN(C(=O)c1ccc(F)c(F)c1)c1nc2n(c1C(=O)NC(C)c1ccc(F)cc1)CCCC2` (stereo not shown) [Example 118, 2-[butyl-(3,4-difluoro-benzoyl)-amino]-5,6,7,8-tetrahydro-imidazo[1,2-a]pyridine-3-carboxylic acid [1-(4-fluoro-phenyl)-ethyl]-amide], the inhibition at 10 µM worked out at 66%.
As for `CCCCN(C(=O)c1cccc(Cl)c1)c1nc2n(c1C(=O)NC1CCCCC1)CCCC2` [Example 120, 2-[butyl-(3-chloro-benzoyl)-amino]-5,6,7,8-tetrahydro-imidazo[1,2-a]pyridine-3-carboxylic acid cyclohexylamide], the inhibition at 10 µM stood at 97% and the activation at 10 µM was determined as 67%.
For the molecule `CCCCN(C(=O)c1ccc(F)c(F)c1)c1nc2n(c1C(=O)NCc1cccc(OC)c1)CCCC2` [Example 122, 2-[butyl-(3,4-difluoro-benzoyl)-amino]-5,6,7,8-tetrahydro-imidazo[1,2-a]pyridine-3-carboxylic acid 3-methoxy-benzylamide], the inhibition at 10 µM worked out at 62%.
Regarding `COC(=O)C(NC(=O)c1c(N(C)C(=O)c2cccc(Cl)c2)nc2n1CCCC2)C(C)OC(C)(C)C` (stereo not shown) [Example 123, 3-tert-butoxy-2-({2-[(3-chloro-benzoyl)-methyl-amino]-5,6,7,8-tetrahydro-imidazo[1,2-a]pyridine-3-carbonyl}-amino)-methyl butyrate], where the note is “compound 10 μM, rat DRG cells”, the “VR1 (rat) (% inhibition in comparison with 10 μM CP)” value stood at 98%. In addition, the “VR1 (rat) (% stimulation in comparison with 10 μM CP)” value (compound 10 μM, rat DRG cells, Ca2+ signal relative to 10 μM capsaicin (CP)) was 36%.
Regarding `CCCCN(C(=O)c1cccc(Cl)c1)c1nc2n(c1C(=O)NC1CCCCC1OCc1ccccc1)CCCC2` (stereo not shown) [Example 124, 2-[butyl-(3-chloro-benzoyl)-amino]-5,6,7,8-tetrahydro-imidazo[1,2-a]pyridine-3-carboxylic acid (2-benzyloxy-cyclohexyl)-amide], the inhibition at 10 µM was 93% and the activation at 10 µM was determined as 37%.
